Measured values reported in patent US20230233540A1, “COMBINATION OF ANTIBODY-DRUG CONJUGATE AND CDK9 INHIBITOR” (AstraZeneca UK Limited, priority 2020, published 2023).

System: HER2 cell lines SKBR3, MDA-MB-468, KPL4 (breast cancer) and NCI-N87 (gastric cancer)
Experiment: Cell viability (CellTiter-Glo) of HER2 cancer cell lines after DS-8201 lead-in and AZD4573
Assay type: cell-based
Settings: DS-8201 alone, 3, 30, 300 ng/mL; four cell lines
Procedure: Following the 6-hour incubation with AZD4573, both drugs were washed out by removing the media, adding and removing fresh phosphate-buffered saline (PBS) 2 times, and replacing the last wash with fresh culture media. The cells were then incubated for another 18 hours before assessment of cell viability using the CellTiter-Glo reagent.

trastuzumab deruxtecan [DS-8201]
loss of cell viability: complete loss of viability is not observed
